Article PMC10040144 (ACS infectious diseases, 2022)

The chains behind the UniProt entries cited, without tags or fusion partners. Where a name states a change or a piece, a line headed by the entry shows the natural chain unless it says otherwise.
UniProt P0AD65: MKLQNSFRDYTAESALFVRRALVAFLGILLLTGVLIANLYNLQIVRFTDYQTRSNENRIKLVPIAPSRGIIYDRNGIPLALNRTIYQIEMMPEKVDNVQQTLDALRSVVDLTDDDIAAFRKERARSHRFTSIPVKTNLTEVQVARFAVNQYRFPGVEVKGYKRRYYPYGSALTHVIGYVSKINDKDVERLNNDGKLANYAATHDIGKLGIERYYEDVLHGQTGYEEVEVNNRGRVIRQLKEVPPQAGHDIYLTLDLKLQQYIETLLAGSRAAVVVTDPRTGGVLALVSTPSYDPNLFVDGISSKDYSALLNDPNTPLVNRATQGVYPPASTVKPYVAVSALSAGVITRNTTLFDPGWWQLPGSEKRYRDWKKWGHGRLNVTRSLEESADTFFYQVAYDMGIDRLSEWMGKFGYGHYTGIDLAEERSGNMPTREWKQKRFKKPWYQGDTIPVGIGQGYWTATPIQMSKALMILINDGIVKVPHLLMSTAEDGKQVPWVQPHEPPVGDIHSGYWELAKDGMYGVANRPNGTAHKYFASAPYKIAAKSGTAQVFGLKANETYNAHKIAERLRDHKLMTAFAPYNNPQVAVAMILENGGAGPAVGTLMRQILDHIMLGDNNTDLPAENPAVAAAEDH
UniProt P0AD68: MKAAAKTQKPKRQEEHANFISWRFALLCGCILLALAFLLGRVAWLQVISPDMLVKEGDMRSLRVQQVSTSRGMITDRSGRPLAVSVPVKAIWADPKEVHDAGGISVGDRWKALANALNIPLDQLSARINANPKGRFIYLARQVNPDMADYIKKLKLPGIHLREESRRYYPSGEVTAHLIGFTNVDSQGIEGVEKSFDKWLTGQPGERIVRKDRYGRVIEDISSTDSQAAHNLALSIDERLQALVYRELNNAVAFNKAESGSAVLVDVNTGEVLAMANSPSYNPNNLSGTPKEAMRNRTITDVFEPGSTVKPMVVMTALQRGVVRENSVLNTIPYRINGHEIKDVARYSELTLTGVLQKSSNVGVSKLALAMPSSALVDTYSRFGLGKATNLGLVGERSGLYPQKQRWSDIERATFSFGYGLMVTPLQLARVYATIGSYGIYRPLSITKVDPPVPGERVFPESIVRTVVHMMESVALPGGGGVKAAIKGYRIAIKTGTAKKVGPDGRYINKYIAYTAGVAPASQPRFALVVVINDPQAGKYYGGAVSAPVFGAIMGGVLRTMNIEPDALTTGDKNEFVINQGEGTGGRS

Legend:
PBP2 = PBP2 (Escherichia coli, UniProt P0AD65); format: cell-based, Escherichia coli MG1655
PBP3 = PBP3 (Escherichia coli, UniProt P0AD68)

## CC1=C(C(=O)O)N2C(=O)[C@@H](NC(=O)[C@H](N)c3ccccc3)[C@H]2SC1 [cephalexin]
PBP2
  IC50: 34 ± 12 µM
PBP3
  IC50: 210 ± 88 µM
